This test deals with Adenosine receptor A2a (Rattus norvegicus, UniProt P30543).

By UniProt entry, the sequences of proteins in these tests, tags left out.
UniProt P30543, whole entry: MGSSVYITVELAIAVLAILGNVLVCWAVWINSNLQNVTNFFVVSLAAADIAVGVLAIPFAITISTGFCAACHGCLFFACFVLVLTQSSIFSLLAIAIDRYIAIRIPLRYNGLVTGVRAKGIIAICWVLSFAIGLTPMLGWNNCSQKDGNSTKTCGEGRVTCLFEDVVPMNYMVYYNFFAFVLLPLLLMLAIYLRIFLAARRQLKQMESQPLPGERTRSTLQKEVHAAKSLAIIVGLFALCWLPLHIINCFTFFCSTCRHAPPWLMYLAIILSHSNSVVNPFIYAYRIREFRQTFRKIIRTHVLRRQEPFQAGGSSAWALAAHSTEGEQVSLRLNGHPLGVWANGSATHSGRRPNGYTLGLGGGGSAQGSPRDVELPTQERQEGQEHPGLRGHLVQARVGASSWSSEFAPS

Here are results for one compound from BindingDB's records for doi:10.1007/bf00175797 (Pharmakologisches Institut, Heidelberg, 1988).

What is called Ki is a measure of affinity in units of concentration, obtained from inhibition or displacement. A high value points to weaker binding. The compound `CC(Cc1ccccc1)Nc1ncnc2c1ncn2C1OC(CO)C(O)C1O` (stereo unspecified) [R-N6-(2-phenylisopropyl) adenosine] came in with a Ki of 730 nM.
